Settings: mouse, in vivo, iv

Taxol
Injected PTX dose (%), Tumor: 0.11%
T1/2 (blood kinetics): 30.6 ± 23.4 min
